Consider one substance from US5863776A, “Method of preparing apoenzyme” (Research Development Foundation, priority 1996, dated 1999).

Amino acid sequences for entries named in this document (tags omitted).
UniProt P27338, whole entry: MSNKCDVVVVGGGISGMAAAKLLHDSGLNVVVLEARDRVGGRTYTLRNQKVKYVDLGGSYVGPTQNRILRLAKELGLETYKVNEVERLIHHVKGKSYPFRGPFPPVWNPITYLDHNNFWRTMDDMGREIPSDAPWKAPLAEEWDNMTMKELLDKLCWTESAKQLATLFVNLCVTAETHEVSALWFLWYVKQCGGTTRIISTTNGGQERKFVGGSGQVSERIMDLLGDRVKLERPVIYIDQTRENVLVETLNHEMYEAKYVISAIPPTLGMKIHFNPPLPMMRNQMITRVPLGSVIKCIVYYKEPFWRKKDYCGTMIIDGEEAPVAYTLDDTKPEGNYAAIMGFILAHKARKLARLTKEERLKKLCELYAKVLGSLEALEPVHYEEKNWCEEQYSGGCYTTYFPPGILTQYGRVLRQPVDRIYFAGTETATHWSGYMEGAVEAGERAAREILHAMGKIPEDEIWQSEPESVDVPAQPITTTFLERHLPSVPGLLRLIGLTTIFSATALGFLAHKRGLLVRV

The data set addresses T1, MAO B (Homo sapiens, UniProt P27338).
T1 construct: expressed in transfected cells; host or cells: COS-7 (African green monkey), riboflavin-containing (Rib+) or riboflavin-depleted (Rib-), transient electroporation
In words: MAO B enzymatic activity in COS-7 cells during riboflavin depletion. It is filed as cell-based. Here is the method: Mammalian COS-7 cells were grown in Dulbecco's Modified Eagle Medium (DMEM, Gibco) supplemented with 10% fetal bovine serum (FBS, Gibco) at 37° C. with 5% CO2. Since this medium (DMEM+10% FBS) contains riboflavin, COS-7 cells grown in this medium were defined as riboflavin-containing COS-7 cells (Rib^+ COS-7 cells). MAO B holoenzyme was obtained by expressing MAO B cDNA in Rib^+ COS-7 cells. Mammalian COS-7 cells were also grown in riboflavin-free medium (riboflavin-free DMEM+10% dialyzed FBS, Gibco) at 37° C. with 5% CO2, with fresh riboflavin-free medium changed every 48-72 hours. COS-7 cells grown in riboflavin-free medium for longer than 100 days were defined as riboflavin-depleted (Rib^-) COS-7 cells. Apo-MAO B was obtained by expressing MAO B cDNA in Rib^- COS-7 cells. COS-7 cells were grown in riboflavin-free medium for greater than 5 months without any detectable change in morphology.
Wild-type or mutant MAO B cDNAs were transiently transfected into COS-7 cells by electroporation (23) as previously described (18). Briefly, Rib^+ - or Rib^- COS-7 cells were harvested during late log phase growth and resuspended to a concentration of 3.1×10^6 cells/ml in either riboflavin-containing or riboflavin-free medium, respectively. Wild-type or mutant MAO B cDNAs ([…]) were added to 0.8 ml of cell suspension. […] Electroporation was carried out in a Bio-Rad Gene Pulser with a setting of 250 V and 500 μF. Cells were resuspended in 15 ml of riboflavin-containing or riboflavin-free medium and incubated at 37° C. with 5% CO2. Transfected COS-7 cells were harvested at 48 hours and homogenized in a lysis solution containing 20 mM Tris-HCl, 1 mM EDTA, 0.5 mM PMSF, pH 8.0. The homogenate was diluted with an equal volume of the same buffer supplemented with 300 mM NaCl to obtain a 150 mM final NaCl concentration. Triton X-100 (Pierce) was added to the lysate to give a final concentration of 0.25%, and the samples were allowed to stir for 50 min. at 4° C. to extract MAO B from the outer mitochondrial membrane. After Triton extraction, the lysate was centrifuged at 1300×g for 5 min. at 4° C. to remove insoluble cell debris.
MAO B activity was assayed radiometrically by a modification of the method of Wurtman and Axelrod (26) as described previously (18). Briefly, the reaction mixture contained 200 μl of 50 mM sodium phosphate buffer (pH 7.4), 3.6 nmole of 55 mCi/mmol [^14 C] benzylamine hydrochloride (Amersham), 10 nmoles of unlabeled benzylamine and 10 μl of cell lysate. […] The reaction product was extracted with 500 μl of toluene, and an aliquot (200 μl) of the organic phase from each sample was counted in liquid scintillation fluid (Bio-Safe) in a Beckman LB 3801 scintillation counter. […]

The mark [1] stands for this setting: COS-7 cells grown in riboflavin-free medium for 76 days.

Consider monoamine oxidase B [MAO B], for which, under setting [1], the “% of holo-MAO B enzymatic activity” value worked out at 12.7% and the Enzymatic activity is listed as 0.14 μmol/minute/mg MAO B. In addition, under “Rib^+ COS-7”, the “% of holo-MAO B enzymatic activity” value is 100% and the Enzymatic activity is recorded as 1.10 μmol/minute/mg MAO B.
